Experiments:
[1] = Stability of analytes in rat plasma (auto-sampler, freeze-thaw, room temperature, long-term); details: for Freeze thaw cycles Accuracy (%): three freeze-thaw cycles; for Autosampler for 24 h Accuracy (%): autosampler 24 h; for Room temperature for 24 h Accuracy (%): room temperature 24 h
[2] = Pharmacokinetic study in rat plasma after oral administration of QJYQ (UHPLC-sMRM); assay type: in vivo, Sprague-Dawley rats; details: oral QJYQ 3.15 g/kg
Experimental: Exion LC AD tandem Blueline 3500 triple quadrupole mass spectrometer (AB SCIEX, Framingham, MA, United States) was used to thirty-three compounds in rat plasma. […] The whole detailed parameters of sMRM were obtained in Supplementary Table S1.
Rat plasma (100 μL) was mixed with 10% formic acid (10 μL) and vortexed for 1 min at room temperature. ISs (10 μL) and methanol/acetonitrile (1/1, v/v) (400 μL) were added and vortexed for 5 min, then centrifuged for 10 min at 14,000 rpm and 4°C. The transported supernatant was condensed to dryness under the flow of nitrogen gas. The dried residue was reconstituted with 70% methanol (100 μL) by vortex-mixing for 5 min and centrifuging at 14,000 rpm for 10 min. Last, 2 μL of the solution were injected into the UHPLC-sMRM system.
The pharmacokinetic study was approved by the Animal Ethics Committee of Tianjin University of Traditional Chinese Medicine (TCM-LAEC2021228). Ten male Sprague-Dawley rats (weight 220–240 g) was kept at the animal center of Tianjin University of Traditional Chinese Medicine (Tianjin, China). […] The sample was transferred right away following a 10 min period of centrifugation at 7000 rpm and 4°C. All plasma samples were frozen and stored at −80°C.
All the pharmacokinetic parameters were calculated using the DAS 1.0 software (Drug and Statistics 1.0, Medical College of Wannan, China). Pharmacokinetic parameters include the maximum drug concentration in plasma (Cmax), the time to achieve maximum drug concentration (Tmax), the area under the plasma concentration-time curve (AUC), elimination half-life (T1/2), and mean residence time (MRT). The pharmacokinetic parameters were computed using the non-compartmental model. All data are expressed as mean ± standard deviation (SD). GraphPad Prism 8.0 (GraphPad Software Inc., La Jolla, CA, United States) software was used to draw the drug-time curve.

[3] = Stability of the working solution (4°C for 1 month); assay type: physicochemical

With O=C1C[C@@H](c2ccc(O[C@@H]3O[C@H](CO)[C@@H](O)[C@H](O)[C@H]3O)cc2)Oc2cc(O)ccc21 [liquiritin] as the compound, how does the “−80°C for 1month Accuracy (%)” value ([1]; 1.56 ng/mL, −80°C 1 month) read?
Its value is 104.0%.

What about the “Freeze thaw cycles Accuracy (%)” value ([1]; 12.5 ng/mL) of the same compound?
The value was 104.0%.

With COc1c(O[C@@H]2O[C@H](C(=O)O)[C@@H](O)[C@H](O)[C@H]2O)cc(O)c2c(=O)cc(-c3ccccc3)oc12 [wogonoside] as the compound, how does the “Freeze thaw cycles Accuracy (%)” value ([1]; 500 ng/mL) read?
Its value is 97.1%.

With COc1ccc(-c2coc3cc(O[C@@H]4O[C@H](CO)[C@@H](O)[C@H](O)[C@H]4O)ccc3c2=O)cc1 [ononin] as the compound, how does the “Autosampler for 24 h Accuracy (%)” value ([1]; 1.56 ng/mL) read?
The value was 106.0%.

And the “−80°C for 1month Accuracy (%)” value ([1]; 100 ng/mL, −80°C 1 month)?
Its value is 95.4%.

And the “Freeze thaw cycles Accuracy (%)” value ([1]; 500 ng/mL)?
The value was 106.0%.

Which results are given for liquiritin apioside?
AUC(0-t) ([2]; n = 8, mean ± SD): 135.24 ± 23.80 ng·h/mL; AUC(0-∞) ([2]; n = 8, mean ± SD): 140.73 ± 27.38 ng·h/mL; Cmax ([2]; n = 8, mean ± SD): 32.92 ± 4.54 ng/mL; MRT (0-∞) ([2]; n = 8, mean ± SD): 8.04 ± 4.40 h; MRT(0-t) ([2]; n = 8, mean ± SD): 6.15 ± 1.76 h; T1/2 ([2]; n = 8, mean ± SD): 10.72 ± 7.42 h; Autosampler for 24 h Accuracy (%) ([1]; 1.56 ng/mL): 84.7%; Freeze thaw cycles Accuracy (%) ([1]; 1.56 ng/mL): 90.2%; −80°C for 1month Accuracy (%) ([1]; 1.56 ng/mL, −80°C 1 month): 100.0%; Autosampler for 24 h Accuracy (%) ([1]; 12.5 ng/mL): 98.8%; Room temperature for 24 h Accuracy (%) ([1]; 12.5 ng/mL): 86.6%; Freeze thaw cycles Accuracy (%) ([1]; 12.5 ng/mL): 100.0%; −80°C for 1month Accuracy (%) ([1]; 12.5 ng/mL, −80°C 1 month): 102.0%; Autosampler for 24 h Accuracy (%) ([1]; 100 ng/mL): 87.2%; Room temperature for 24 h Accuracy (%) ([1]; 100 ng/mL): 89.2%; Freeze thaw cycles Accuracy (%) ([1]; 100 ng/mL): 104.0%; −80°C for 1month Accuracy (%) ([1]; 100 ng/mL, −80°C 1 month): 99.1%; Autosampler for 24 h Accuracy (%) ([1]; 500 ng/mL): 97.9%; Room temperature for 24 h Accuracy (%) ([1]; 500 ng/mL): 95.0%; Freeze thaw cycles Accuracy (%) ([1]; 500 ng/mL): 101.0%; −80°C for 1month Accuracy (%) ([1]; 500 ng/mL, −80°C 1 month): 105.0%; Working solution Accuracy (%) ([3]; 1.56 ng/mL): 100.0%; Working solution Accuracy (%) ([3]; 12.5 ng/mL): 115.0%; Working solution Accuracy (%) ([3]; 100 ng/mL): 87.2%; Working solution Accuracy (%) ([3]; 500 ng/mL): 87.9%

With CC(C)(O[C@@H]1O[C@H](CO)[C@@H](O)[C@H](O)[C@H]1O)[C@@H]1CC[C@](O)(CO)[C@H]2CC(=O)[C@@](C)(O)[C@@H]2C1 [atractyloside A] as the compound, how does the “Freeze thaw cycles Accuracy (%)” value ([1]; 100 ng/mL) read?
The value was 101.0%.

And the “Freeze thaw cycles Accuracy (%)” value ([1]; 500 ng/mL)?
The value was 102.0%.

Which “Room temperature for 24 h Accuracy (%)” value ([1]; 100 ng/mL) does the source give for O=C(/C=C/c1ccc(O)c(O)c1)O[C@H]1[C@H](O)C[C@](O)(C(=O)O)C[C@H]1O [cryptochlorogenic acid] here?
The value was 102.0%.

Which results are given for C[C@]1(OC(=O)/C=C/c2ccccc2)C[C@@H](O)[C@]2(O)C=CO[C@@H](O[C@@H]3O[C@H](CO)[C@@H](O)[C@H](O)[C@H]3O)[C@@H]21 [harpagoside]?
−80°C for 1month Accuracy (%) ([1]; 12.5 ng/mL, −80°C 1 month): 102.0%; −80°C for 1month Accuracy (%) ([1]; 100 ng/mL, −80°C 1 month): 95.4%; Autosampler for 24 h Accuracy (%) ([1]; 500 ng/mL): 102.0%; −80°C for 1month Accuracy (%) ([1]; 500 ng/mL, −80°C 1 month): 99.1%; Working solution Accuracy (%) ([3]; 100 ng/mL): 101.0%

For COc1c(O)cc(O)c2c(=O)cc(-c3ccccc3)oc12 [wogonin], which “Freeze thaw cycles Accuracy (%)” value ([1]; concentration 100 ng/mL) is on record?
The value was 104.0%.

What does the source list for harpagide?
MRT ([2]; MRT type not specified): greater than 8 h; AUC(0-t) ([2]; n = 8, mean ± SD): 693.87 ± 217.37 ng·h/mL; AUC(0-∞) ([2]; n = 8, mean ± SD): 723.75 ± 209.89 ng·h/mL; Cmax ([2]; n = 8, mean ± SD): 79.38 ± 7.71 ng/mL; MRT (0-∞) ([2]; n = 8, mean ± SD): 12.55 ± 1.09 h; MRT(0-t) ([2]; n = 8, mean ± SD): 10.67 ± 1.23 h; T1/2 ([2]; n = 8, mean ± SD): 7.62 ± 3.88 h; Tmax ([2]; n = 8, mean ± SD): 0.75 ± 0.16 h; Autosampler for 24 h Accuracy (%) ([1]; 1.56 ng/mL): 93.7%; Room temperature for 24 h Accuracy (%) ([1]; 1.56 ng/mL): 90.2%; Freeze thaw cycles Accuracy (%) ([1]; 1.56 ng/mL): 97.3%; −80°C for 1month Accuracy (%) ([1]; 1.56 ng/mL, −80°C 1 month): 105.0%; Autosampler for 24 h Accuracy (%) ([1]; 12.5 ng/mL): 88.1%; Room temperature for 24 h Accuracy (%) ([1]; 12.5 ng/mL): 92.7%; Freeze thaw cycles Accuracy (%) ([1]; 12.5 ng/mL): 102.0%; −80°C for 1month Accuracy (%) ([1]; 12.5 ng/mL, −80°C 1 month): 92.9%; Autosampler for 24 h Accuracy (%) ([1]; 100 ng/mL): 96.1%; Room temperature for 24 h Accuracy (%) ([1]; 100 ng/mL): 95.6%; Freeze thaw cycles Accuracy (%) ([1]; 100 ng/mL): 96.3%; −80°C for 1month Accuracy (%) ([1]; 100 ng/mL, −80°C 1 month): 88.3%; Autosampler for 24 h Accuracy (%) ([1]; 500 ng/mL): 93.4%; Room temperature for 24 h Accuracy (%) ([1]; 500 ng/mL): 96.4%; Freeze thaw cycles Accuracy (%) ([1]; 500 ng/mL): 105.0%; −80°C for 1month Accuracy (%) ([1]; 500 ng/mL, −80°C 1 month): 92.7%; Working solution Accuracy (%) ([3]; 1.56 ng/mL): 82.1%; Working solution Accuracy (%) ([3]; 12.5 ng/mL): 107.0%; Working solution Accuracy (%) ([3]; 100 ng/mL): 92.4%; Working solution Accuracy (%) ([3]; 500 ng/mL): 101.0%

Which “Room temperature for 24 h Accuracy (%)” value ([1]; 12.5 ng/mL) does the source give for COc1c2c(cc3oc(CO)cc(=O)c13)O[C@H](C(C)(C)O)C2 [cimifugin] here?
The value was 95.6%.

And the “Working solution Accuracy (%)” value ([3]; 100 ng/mL)?
The value was 101.0%.

Which results are given for isoliquiritin apioside?
Working solution Accuracy (%) ([3]; 1.56 ng/mL): 96.2%; Working solution Accuracy (%) ([3]; 12.5 ng/mL): 98.1%; Working solution Accuracy (%) ([3]; 100 ng/mL): 97.6%; Working solution Accuracy (%) ([3]; 500 ng/mL): 100.0%

For O=C(O)C=Cc1ccc(O)cc1 [p-Coumaric acid], which “Working solution Accuracy (%)” value ([3]; 12.5 ng/mL) is on record?
The value was 107.0%.

Which results are given for CC(C)=CCC[C@](C)(O)[C@H]1CC[C@]2(C)[C@@H]1[C@H](O)C[C@@H]1[C@@]3(C)CC[C@H](O)C(C)(C)[C@@H]3[C@@H](O[C@@H]3O[C@H](CO)[C@@H](O)[C@H](O)[C@H]3O)C[C@]12C [ginsenoside Rh1]?
Freeze thaw cycles Accuracy (%) ([1]; 50 ng/mL): 101.0%; Room temperature for 24 h Accuracy (%) ([1]; concentration 200 ng/mL): 90.2%; Freeze thaw cycles Accuracy (%) ([1]; concentration 200 ng/mL): 101.0%; −80°C for 1month Accuracy (%) ([1]; −80°C for 1 month, concentration 200 ng/mL): 101.0%; Working solution Accuracy (%) ([3]; concentration 200 ng/mL): 107.0%; Working solution Accuracy (%) ([3]; concentration 500 ng/mL): 107.0%

With CC(C)=CCC[C@](C)(O)[C@H]1CC[C@]2(C)[C@@H]1[C@H](O)C[C@@H]1[C@@]3(C)CC[C@H](O)C(C)(C)[C@@H]3[C@@H](O[C@@H]3O[C@H](CO)[C@@H](O)[C@H](O)[C@H]3O[C@@H]3O[C@H](CO)[C@@H](O)[C@H](O)[C@H]3O)C[C@]12C [ginsenoside Rf] as the compound, how does the “Room temperature for 24 h Accuracy (%)” value ([1]; 50 ng/mL) read?
The value was 92.7%.

What about the “−80°C for 1month Accuracy (%)” value ([1]; 100 ng/mL, −80°C 1 month) of the same compound?
Its value is 105.0%.

And the “Autosampler for 24 h Accuracy (%)” value ([1]; 500 ng/mL)?
The value was 106.0%.

And the “Freeze thaw cycles Accuracy (%)” value ([1]; 500 ng/mL)?
The value was 106.0%.

Which “−80°C for 1month Accuracy (%)” value ([1]; 12.5 ng/mL, −80°C 1 month) does the source give for O=C(/C=C/c1ccc(O[C@@H]2O[C@H](CO)[C@@H](O)[C@H](O)[C@H]2O)cc1)c1ccc(O)cc1O [isoliquiritin] here?
The value was 105.0%.

And the “Working solution Accuracy (%)” value ([3]; 100 ng/mL)?
The value was 98.1%.

With CC(=O)O[C@H]1[C@H](O[C@H]2CC[C@]34C[C@]35CC[C@]3(C)[C@@H]([C@@]6(C)CC[C@@H](C(C)(C)O)O6)[C@@H](O)C[C@@]3(C)[C@@H]5C[C@H](O[C@@H]3O[C@H](CO)[C@@H](O)[C@H](O)[C@H]3O)[C@H]4C2(C)C)OC[C@@H](O)[C@@H]1O [astragaloside II(IS)] as the compound, how does the “Room temperature for 24 h Accuracy (%)” value ([1]; concentration 100 ng/mL) read?
Its value is 102.0%.

And the “Freeze thaw cycles Accuracy (%)” value ([1]; concentration 100 ng/mL)?
Its value is 105.0%.

— article PMC10133546, “Simultaneous determination of multiple components in rat plasma by UHPLC-sMRM for pharmacokinetic studies after oral administration of Qingjin Yiqi Granules” (Frontiers in Pharmacology, 2023)
